Rows were chosen to be rich in hits. Some 3.7% of all compounds tested hit in one or more screens of this group.
Nrf2 ARE act – Nrf2 pathway activation; AREc32 ARE-luciferase reporter (MCF7-derived line), luminescence, 24 h; Potency, µM (titrated, usually from 46.1 µM), without a hit: at the top dose activation, most hits filed as activators; 410,000 tested, 0.31% active; AID 624171; also: potency is read from the fitted curve at half-maximal effect; % of control where 0% means no effect; nearly all actives have a fitted effect of over 65% in size
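Luciferase luminescence (Steady-Glo, 30 min at room temperature) served as the read-out of ARE activation in AREc32 cells treated with compounds for 24 hr at 37 deg C.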
TCR act – T cell receptor activation | primary human leukocytes, anti-CD3, IL-2 HTRF, 48 h | Potency, µM (highest dose often 9.22 µM), without a hit: at the highest dose activation of IL-2 secretion, most hits filed as activators | 330,000 tested, under 10 active | AID 504894; also: % of control where 0% means no effect
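Compounds are tested in HTS on primary human leukocytes co-incubated with a-CD3 beads for 48 hr. IL-2 output is measured by time-resolved FRET.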
Nrf2 inh – blocks Nrf2 signaling. A549 ARE-Fluc reporter, luciferase luminescence, 18-24 h. 360,000 tested, 2.1% active. Potency, µM (doses to about 46 µM), inactives show at the highest dose activity change, negative = inhibition, hits mostly inhibitors. AID 504444; also: potency is read from the fitted curve at half-maximal effect; % is scaled to controls: 0 for no effect and ±100 for the full control effect; nearly all actives have a fitted effect of over 60% in size
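Nrf2 function is reported as luminescence of an ARE-controlled luciferase in A549 cells. Compounds were tested at several concentrations, and a CellTiter-Fluor read on the same wells flagged cytotoxicity.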
ClpP mod – qHTS Assay for Activators of ClpP; ATP-dependent Clp protease proteolytic subunit (Bacillus subtilis (strain 168)), P80244; purified B. subtilis ClpP, FRET peptide cleavage, 20 min; Potency, µM (series often up to 57.5 µM), for the others: top-dose activity change, negative = active; 340,000 tested, 1.9% active; active = well fitted falling curve with a large enough effect; inconclusive = small, poorly fitted or top-dose-only effect; inactive = no such curve, though single readings can be large or run the other way; also: potency is read from the fitted curve at half-maximal effect; the source files actives as falling curves though it sought activators and does not explain the sign; nearly all actives have a fitted effect of over 65% in size
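FRET quenching reversal measured ClpP activation: 10 microg/mL B. subtilis ClpP at pH 8 with the FRET-FV decapeptide, read at 430 nm after 320 nm excitation. The 20-min minus 0-min signal was scaled between DMSO/no-enzyme wells and ADEP (5.8 microM final).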
A549 viability – counter-screen for Nrf2 inhibitors: cytotoxicity in A549 cells. A549 ARE-Fluc cells, CellTiter-Fluor viability, 18-24 h. Potency, µM (doses to about 46 µM), inactives show top-dose activity change, negative = cytotoxicity, actives largely listed as inhibitors. 390,000 tested, 0.16% active. AID 504648; also: potency is read from the fitted curve at half-maximal effect; % is scaled to controls: 0 for no effect and ±100 for the full control effect
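Cytotoxicity counterscreen: CellTiter-Fluor fluorescence was measured in A549 ARE_Fluc cells after 18-24 h of compound exposure in a concentration series. The subsequent BugLite luminescent read reports ARE-luciferase activity.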
miR-21 reporter – miR-21 reporter, rising signal | HeLa miR-21 FLuc reporter, luciferase, 48 h | Potency, µM (doses to about 38.3 µM), inactives show at the top dose reporter change, positive = more light | 340,000 tested, under 10 active | AID 2288; active = well fitted rising curve with a large enough effect; inconclusive = small, poorly fitted or top-dose-only effect; inactive = no such curve, though single readings can be large or run the other way;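 note: % of control where 0% means no effect; miR-21 action dims this reporter so a rising signal means less miR-21 action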
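Using DMEM plus 10% FBS, HeLa miR-21-FLuc cells are incubated with test compounds (final up to about 40uM) for 48 hours; firefly luciferase signal is then imaged following reagent-mediated lysis.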
* marks the source's active call; other numbers are inactive results; [ ] = another dose, or the depositor's remark. Unless noted, calls follow the shape of the dose curve; as a rule, active = well fitted curve in the direction sought with a large enough effect; inconclusive = small, poorly fitted or top-dose-only effect, or another doubt; inactive = no such curve, though single readings can be large; an effect the other way counts as inactive or inconclusive.

Screening C=CCN(c1ccccc1)S(=O)(=O)c1cccc(C(=O)N2CC(C)CC(C)C2)c1 (centres undefined) returned Nrf2 ARE act 5.4%, TCR act 2.2%, Nrf2 inh 20.6µM*, ClpP mod 1.3%, A549 viability inconclusive and miR-21 reporter 24.9%.
For COc1cccc(Cn2c3ccc(NC(=O)CCc4ccc(F)cc4)cc3c(=O)n2C)c1 the results were Nrf2 ARE act -0.8%[9.22 µM] and ClpP mod 4.4%.
`CC1CC(C)CN(S(=O)(=O)c2ccc(Oc3ccc([N+](=O)[O-])cc3)cc2)C1` (centres undefined) gave Nrf2 ARE act -0.1%, TCR act 3.6%, Nrf2 inh 23.1µM*, ClpP mod -14.3%, A549 viability 12.1% and miR-21 reporter -5.2%.
Screening CC(=O)N=C1SC2CS(=O)(=O)CC2N1c1c(Cl)cccc1Cl (centres undefined) returned Nrf2 ARE act -0.5%, TCR act 8.1%, ClpP mod 31.6µM*, A549 viability 8.8% and miR-21 reporter -4.4%.
`N#Cc1ccc(-c2nc3cc(Cl)ccc3c(=O)n2O)cc1` gave Nrf2 ARE act -1.9%, TCR act 2.8%, Nrf2 inh -19.0%, ClpP mod -1.8%, A549 viability -13.4% and miR-21 reporter 9.6%.
Screening O=c1c2ccc(Cl)cc2nc(-c2cccc(C(F)(F)F)c2)n1O returned Nrf2 ARE act 1.3%, TCR act -20.9%, Nrf2 inh 23.1µM*, ClpP mod -2.0%, A549 viability -28.3% and miR-21 reporter inconclusive.
`COC(=O)C1=C(C)NC(=O)NC1c1cn(-c2ccccc2)nc1-c1cccs1` (centres undefined) gave Nrf2 ARE act 3.2%, TCR act -4.9%, Nrf2 inh -4.1%, ClpP mod -3.6%, A549 viability -10.7% and miR-21 reporter -7.9%.
CC1=C(C(=O)OC(C)C)C(c2cn(-c3ccccc3)nc2-c2cccs2)NC(=O)N1 (centres undefined) was read as Nrf2 ARE act 2.3%, TCR act 0.8%[46.1 µM], Nrf2 inh 18.4µM*, ClpP mod -11.6%, A549 viability inconclusive and miR-21 reporter -11.6%.
CCc1c(C)n2nc(C)cc2[nH]c1=O was read as Nrf2 ARE act -0.4%, TCR act 0.7%, Nrf2 inh 0.2%, ClpP mod 12.6µM*, A549 viability -2.8% and miR-21 reporter 1.4%.
Screening CCCSc1nc2c(cnn2-c2ccccc2)c(=O)[nH]1 returned Nrf2 ARE act 0.5%, TCR act -8.7%, Nrf2 inh inconclusive, ClpP mod 1.6%, A549 viability -5.1% and miR-21 reporter -13.5%.
Screening CCc1cccc(-n2c(C)nc3c(cnn3-c3ccc(Cl)cc3)c2=O)c1 returned Nrf2 ARE act -0.5%, Nrf2 inh 16.4µM*, ClpP mod -1.6%, A549 viability -0.1% and miR-21 reporter 12.1%.
`CCCSc1nc2c(cnn2-c2ccc(C)cc2)c(=O)[nH]1` gave Nrf2 ARE act 0.6%, TCR act 4.4%[46.1 µM], Nrf2 inh 18.4µM*, ClpP mod -1.0%, A549 viability -22.5% and miR-21 reporter -13.8%.
Screening Cc1ccc(-n2ncc3c(=O)n(-c4ccc(C)c(C)c4)c(C)nc32)cc1 returned Nrf2 ARE act 0.3%, TCR act 2.4%, Nrf2 inh -3.4%, ClpP mod -5.4%, A549 viability -8.0% and miR-21 reporter -9.1%.
Screening CCc1cccc(-n2c(C)nc3c(cnn3-c3ccc(C)c(C)c3)c2=O)c1 returned Nrf2 ARE act 0.9%, Nrf2 inh inconclusive, ClpP mod -6.2%, A549 viability 13.6% and miR-21 reporter 6.8%.
`COc1ccc(-n2c(-c3ccccc3F)nc3c(cnn3-c3ccc(C)cc3)c2=O)cc1` gave Nrf2 ARE act 4.3%, Nrf2 inh -5.8%, ClpP mod 25.1µM*, A549 viability -1.9% and miR-21 reporter 7.6%.

Three structures from above, ordered by count of non-hydrogen atoms, low to high.
`CCCSc1nc2c(cnn2-c2ccc(C)cc2)c(=O)[nH]1` gave Nrf2 ARE act 0.6%, TCR act 4.4%[46.1 µM], Nrf2 inh 18.4µM*, ClpP mod -1.0%, A549 viability -22.5% and miR-21 reporter -13.8%.
Screening CC(=O)N=C1SC2CS(=O)(=O)CC2N1c1c(Cl)cccc1Cl (centres undefined) returned Nrf2 ARE act -0.5%, TCR act 8.1%, ClpP mod 31.6µM*, A549 viability 8.8% and miR-21 reporter -4.4%.
`CC1CC(C)CN(S(=O)(=O)c2ccc(Oc3ccc([N+](=O)[O-])cc3)cc2)C1` (centres undefined) gave Nrf2 ARE act -0.1%, TCR act 3.6%, Nrf2 inh 23.1µM*, ClpP mod -14.3%, A549 viability 12.1% and miR-21 reporter -5.2%.

Screening results deposited in PubChem by National Center for Advancing Translational Sciences (NCATS).
